The entries are a selection whose mix differs from that of the whole data set. Activity calls are given as the source filed them.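 Rule for the calls: active = nuclear translocation activity above 50% at 5 µM, with a well cell count of 50 or more; inconclusive = wells under 50 cells across six images, flagged as toxic; inactive = the rest.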

A short description of the assay: modulators of beta-catenin nuclear translocation, primary screen, imaging, HeLa cells, immunofluorescence, high-content (AID 1665).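 Note: per-cell ratio of nuclear to cytoplasmic median beta-catenin stain intensity; plate controls were DMSO negative control for no effect and GSK-3 inhibitor IX positive control for full effect.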 As to conditions: at 5 µM, active compounds read high. The procedure, abridged: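 Technique: fluorescence imaging of beta-catenin antibody stain plus DAPI / Material: human HeLa cell line / Incubation: compound treatment 24 h, 37°C, 5% CO2 / Read-out basis: % activation of per-cell nuclear versus cytoplasmic median beta-catenin signal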
With `COc1ccccc1OP(C)(=O)Nc1ccc(C)cc1` (stereo unspecified), the nuclear translocation activity is inactive: -3.9%.

Values taken from PubChem BioAssay AID1665 (Sanford-Burnham Center for Chemical Genomics, 2009).
